Columns and labels:
Format in all cases: biochemical
KIAA1363 = KIAA1363 (Mus musculus, UniProt Q8BLF1); assay: Activity based protein profiling (proteome-wide selectivity screening, FP-Rh), KIAA1363; conditions: read-out: KIAA1363 IC50, Table 4
[1] = molecular target: triacylglycerol hydrolase (TGH) (Mus musculus, UniProt Q8VCT4); assay: Activity based protein profiling (proteome-wide selectivity screening, FP-Rh), TGH; conditions: read-out: TGH IC50, Table 4
[2] = molecular target: purified recombinant rat FAAH (Rattus norvegicus, UniProt P97612); assay: FAAH inhibition enzyme assay (14C-oleamide hydrolysis, Dixon plot), rat enzyme

Sequences of proteins named here, by UniProt entry; tags and fusion partners are left off. Residues count along the entry.
UniProt Q8BLF1, whole entry: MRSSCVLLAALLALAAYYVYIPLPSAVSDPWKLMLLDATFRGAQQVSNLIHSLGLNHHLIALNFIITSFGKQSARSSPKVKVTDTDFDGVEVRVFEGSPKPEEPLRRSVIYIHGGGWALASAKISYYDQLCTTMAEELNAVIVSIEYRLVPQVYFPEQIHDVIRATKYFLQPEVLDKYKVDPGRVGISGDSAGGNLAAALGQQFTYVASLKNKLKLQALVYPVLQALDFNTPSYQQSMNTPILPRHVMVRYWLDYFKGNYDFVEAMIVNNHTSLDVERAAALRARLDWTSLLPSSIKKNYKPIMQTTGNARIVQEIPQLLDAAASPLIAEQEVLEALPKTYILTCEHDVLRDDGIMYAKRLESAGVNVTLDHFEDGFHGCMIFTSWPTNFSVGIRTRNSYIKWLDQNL
UniProt Q8VCT4, 19-565 limits assumed: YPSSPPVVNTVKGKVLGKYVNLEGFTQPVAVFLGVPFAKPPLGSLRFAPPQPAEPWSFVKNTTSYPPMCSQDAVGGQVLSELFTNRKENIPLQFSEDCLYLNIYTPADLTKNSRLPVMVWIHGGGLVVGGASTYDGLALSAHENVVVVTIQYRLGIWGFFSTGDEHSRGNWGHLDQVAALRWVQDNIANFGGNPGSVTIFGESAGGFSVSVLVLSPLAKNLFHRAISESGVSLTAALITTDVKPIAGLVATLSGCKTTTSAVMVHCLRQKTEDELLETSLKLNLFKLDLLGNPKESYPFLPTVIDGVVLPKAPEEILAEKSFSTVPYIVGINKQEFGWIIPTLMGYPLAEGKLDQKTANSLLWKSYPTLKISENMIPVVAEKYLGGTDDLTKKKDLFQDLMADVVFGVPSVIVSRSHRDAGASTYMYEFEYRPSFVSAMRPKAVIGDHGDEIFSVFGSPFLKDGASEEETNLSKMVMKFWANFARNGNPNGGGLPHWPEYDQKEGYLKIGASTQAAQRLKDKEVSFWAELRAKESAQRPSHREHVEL
UniProt P97612, 30-579 limits assumed: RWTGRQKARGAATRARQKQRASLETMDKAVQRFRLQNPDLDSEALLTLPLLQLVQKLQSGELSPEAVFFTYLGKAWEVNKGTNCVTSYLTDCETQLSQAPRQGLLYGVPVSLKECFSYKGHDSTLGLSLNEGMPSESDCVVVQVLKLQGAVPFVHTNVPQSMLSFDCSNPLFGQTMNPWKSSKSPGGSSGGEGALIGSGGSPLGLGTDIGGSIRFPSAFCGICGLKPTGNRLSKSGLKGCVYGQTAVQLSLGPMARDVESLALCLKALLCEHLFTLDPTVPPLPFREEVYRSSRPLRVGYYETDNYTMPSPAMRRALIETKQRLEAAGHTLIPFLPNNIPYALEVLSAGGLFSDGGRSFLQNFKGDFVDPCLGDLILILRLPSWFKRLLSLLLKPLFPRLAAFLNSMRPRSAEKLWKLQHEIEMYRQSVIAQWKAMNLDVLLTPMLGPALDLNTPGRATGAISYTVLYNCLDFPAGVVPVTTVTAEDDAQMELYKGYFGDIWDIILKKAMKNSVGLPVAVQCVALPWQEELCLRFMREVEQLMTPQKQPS

Row | IC50 (KIAA1363) [nM] | IC50 [1] [nM] | Structure (SMILES) | Ki [2] [nM]
1 | 20000 | 20 | O=C(CCCCCCc1ccccc1)c1ncco1 | 
2 |  |  | O=C(CCc1ccc(-c2ccccc2)cc1)c1nnc(-c2ccccn2)o1 | 0.3

Source: US8987312B2, “Alpha-keto heterocycles as FAAH inhibitors” (The Scripps Research Institute, priority 2008, dated 2015)
